Test results reported in patent US6998423B2, “Prevention of loss and restoration of bone mass by certain prostaglandin agonists” (priority 1996, dated 2006).

The chains behind the UniProt entries cited, without tags or fusion partners. Where a name states a change or a piece, a line headed by the entry shows the natural chain unless it says otherwise.
UniProt P43116: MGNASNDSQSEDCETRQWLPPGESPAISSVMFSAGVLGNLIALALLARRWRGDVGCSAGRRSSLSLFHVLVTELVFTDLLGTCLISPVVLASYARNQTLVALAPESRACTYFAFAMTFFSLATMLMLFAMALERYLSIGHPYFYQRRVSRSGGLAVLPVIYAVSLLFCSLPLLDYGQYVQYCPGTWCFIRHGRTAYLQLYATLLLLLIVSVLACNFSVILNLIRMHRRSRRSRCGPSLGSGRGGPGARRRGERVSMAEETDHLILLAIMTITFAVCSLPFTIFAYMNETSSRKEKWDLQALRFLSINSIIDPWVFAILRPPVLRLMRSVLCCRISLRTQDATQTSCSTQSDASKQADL

Target: human EP2 receptor (Homo sapiens, UniProt P43116)
Experiment: Scatchard analysis of specific [3-H]PGE2 binding in 293-S cell line stably overexpressing recombinant human EP2 receptor
Details: read-out: Kd for PGE2 (EP2), 293-S/EP2 line selected for compound screening, approximately 338,400 receptors per cell

Kd: 12 nM
Compound: CCCCC[C@H](O)/C=C/[C@H]1[C@H](O)CC(=O)[C@@H]1C/C=C\CCCC(=O)O [PGE2, prostaglandin E2]
